Source: patent US20100113348A1, “PERCUTANEOUSLY ABSORBABLE PREPARATION, PROCESS FOR PRODUCTION THEREOF AND METHOD FOR PERCUTANEOUS ABSORPTION” (priority 2007, published 2010)

Assay: Skin permeation experiment (excised rat skin on Franz diffusion cell, HPLC)

Question: Which results are given for bovine insulin?
Answer: accumulated permeation amount within 24 hours (Control 1: bovine insulin mixed into the copolymer base material (not laminated), same method as Example 1): 0.01 μg/cm^2; accumulated permeation amount within 24 hours (Example 1: patch with 100 μg bovine insulin layer laminated on acrylate copolymer base material, stratum corneum pretreated with 0.01 weight % trypsin, 1 hour, 37° C.): 3.2 μg/cm^2; accumulated permeation amount within 24 hours (Example 2: same insulin patch as Example 1, no pretreatment of stratum corneum): 1.7 μg/cm^2
